30 compounds from US12139488B2, “Pyrido[3,2-d]pyrimidine compounds uses thereof for treating a proliferative disease” (Universite de Montreal, priority 2021, dated 2024) can be followed below.

Chains of the proteins cited; added tags and fusions are not shown.
UniProt P15056, whole entry: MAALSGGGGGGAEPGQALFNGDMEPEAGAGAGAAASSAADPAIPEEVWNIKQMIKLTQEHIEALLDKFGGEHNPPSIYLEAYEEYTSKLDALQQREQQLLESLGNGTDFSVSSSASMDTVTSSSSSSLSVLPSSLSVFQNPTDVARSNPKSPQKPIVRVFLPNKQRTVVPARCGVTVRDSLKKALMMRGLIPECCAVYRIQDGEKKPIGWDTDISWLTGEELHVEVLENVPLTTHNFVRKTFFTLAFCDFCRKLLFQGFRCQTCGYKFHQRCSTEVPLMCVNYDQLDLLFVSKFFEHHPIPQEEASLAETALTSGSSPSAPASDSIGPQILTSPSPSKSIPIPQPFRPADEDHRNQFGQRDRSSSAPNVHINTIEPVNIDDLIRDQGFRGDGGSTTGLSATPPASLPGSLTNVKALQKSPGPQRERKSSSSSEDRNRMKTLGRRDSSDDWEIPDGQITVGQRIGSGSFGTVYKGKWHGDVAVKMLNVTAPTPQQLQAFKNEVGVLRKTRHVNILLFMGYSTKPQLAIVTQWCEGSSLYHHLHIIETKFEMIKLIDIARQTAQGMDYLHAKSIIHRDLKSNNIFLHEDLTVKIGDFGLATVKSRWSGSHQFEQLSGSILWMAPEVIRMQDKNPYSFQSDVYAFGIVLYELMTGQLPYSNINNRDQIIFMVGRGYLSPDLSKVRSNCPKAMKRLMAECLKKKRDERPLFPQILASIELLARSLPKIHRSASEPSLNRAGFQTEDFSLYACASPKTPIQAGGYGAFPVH
UniProt P04049, whole entry: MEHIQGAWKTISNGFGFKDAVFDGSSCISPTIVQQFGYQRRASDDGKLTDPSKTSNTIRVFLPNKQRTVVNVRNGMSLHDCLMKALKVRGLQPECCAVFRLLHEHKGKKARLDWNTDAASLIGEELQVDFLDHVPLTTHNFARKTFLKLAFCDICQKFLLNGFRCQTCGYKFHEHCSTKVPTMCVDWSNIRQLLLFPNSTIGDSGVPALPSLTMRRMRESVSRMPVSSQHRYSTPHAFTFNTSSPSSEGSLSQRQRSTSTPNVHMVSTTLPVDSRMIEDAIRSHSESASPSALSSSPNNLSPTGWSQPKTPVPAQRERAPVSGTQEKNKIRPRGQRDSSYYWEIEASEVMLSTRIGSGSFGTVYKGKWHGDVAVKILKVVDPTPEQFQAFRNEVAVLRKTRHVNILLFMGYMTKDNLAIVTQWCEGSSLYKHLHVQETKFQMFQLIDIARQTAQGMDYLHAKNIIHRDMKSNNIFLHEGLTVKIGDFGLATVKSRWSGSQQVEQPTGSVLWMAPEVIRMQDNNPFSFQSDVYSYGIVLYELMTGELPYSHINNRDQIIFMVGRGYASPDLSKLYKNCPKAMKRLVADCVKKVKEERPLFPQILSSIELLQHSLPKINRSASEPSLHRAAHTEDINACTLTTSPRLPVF

The target in one experiment is BRAF (Homo sapiens (Human), UniProt P15056). The experiment in a line: BRAF kinase activity assay (ADP-Glo).
The next experiment concerns the target CRAF (Homo sapiens, UniProt P04049). The experiment in a line: CRAF kinase activity assay (ADP-Glo). In general terms: In ADP-Glo the light output rises with the ADP produced.
For experiment [1], the system named is pERK in HCT-116 cells (KRAS G13D). The experiment in a line: Phospho-ERK inhibition (AlphaLISA SureFire Ultra p-ERK 1/2), HCT116. Particulars: for HCT116 pERK % Ymin (lowest value of the IC50 curve) / IC50 / HCT116 pERK Ymin %: HCT116 cells; for HCT116 pERK % Ymin (lowest value of the IC50 curve): Ymin above −20% = minimal or no paradoxical activation; for IC50: read-out: HCT116 pERK IC50; for HCT116 pERK Ymin %: Ymin in brackets. Summed up:
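Cells in RPMI-1640 with 5% FBS were plated overnight, then exposed for 1 h to ten-point dilutions (typically 10 μM to 0.33 nM; 0.5% DMSO). Lysates were read by AlphaLISA SureFire Ultra for p-ERK1/2 Thr202/Tyr204; % inhibition used trametinib background and DMSO controls, with IC50 from four-parameter fits.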
A general note: Alpha assays give light when donor and acceptor beads are brought close together.

The mark [2] stands for this setting: read-out: Kinase IC50 (nM), BRAF biochemical kinase assay, BRAF.
The mark [3] stands for this setting: read-out: Kinase IC50 (nM), CRAF biochemical kinase assay, CRAF.
[4] abbreviates: read-out: Kinase IC50 (nM) BRAF.
Where [5] appears, read: read-out: Kinase IC50 (nM) CRAF.
[6] abbreviates: class symbol before the bracket.

Molecules are shown by their SMILES. Read-outs that look alike come from different tables or passages of the source. Some results are limits rather than exact numbers.

By IC50 is commonly meant the point on the concentration scale where inhibition reaches its midpoint. For `O=S(=O)(Nc1ccc(F)c(Nc2ncnc3ccc(-n4cnc5c(N6C7CCC6CC(O)C7)cccc54)nc23)c1F)c1cccc(Cl)c1Cl` (stereo not shown), the 50% inhibitory concentration (IC50) at BRAF (setting [2]) is 1 to 10 nM; on CRAF (setting [3]), over 50 nM; in experiment [1], 500 to 1000 nM. In experiment [1], the “HCT116 pERK % Ymin (lowest value of the IC50 curve)” value (shortened to “HCT116 pERK % Ymin”) is −10%.
Take `CC(C)C(=O)N1CCN(c2cccc3c2ncn3-c2ccc3ncnc(Nc4c(F)ccc(NS(=O)(=O)c5cccc(Cl)c5Cl)c4F)c3n2)CC1`: the values for the IC50 (on BRAF (setting [2]); at CRAF (setting [3]); in experiment [1]) were 1 to 10 nM, 10 to 50 nM and under 500 nM, respectively. In experiment [1], the “HCT116 pERK % Ymin” value is −10%.
As for `O=S(=O)(Nc1ccc(F)c(Nc2ncnc3ccc(-n4nnc5c(N6CCC(CCO)CC6)cccc54)nc23)c1F)c1cccc(Cl)c1Cl`, the 50% inhibitory concentration (IC50) on BRAF (setting [2]) is 1 to 10 nM; on CRAF (setting [3]) it was 10 to 50 nM; in experiment [1], under 500 nM. Besides, the “HCT116 pERK % Ymin” value in experiment [1] was determined as 2%.
In the same order, the values of `Cc1c(S(=O)(=O)Nc2ccc(F)c(Nc3ncnc4ccc(-n5nnc6ccccc65)nc34)c2F)ccc(F)c1F` are 1 to 10 nM, 10 to 50 nM, 500 to 1000 nM and -14%.
Take `O=S(=O)(Nc1ccc(F)c(Nc2ncnc3ccc(-n4cnc5c(N6CCOC[C@@H]6CO)cccc54)nc23)c1F)c1cccc(Cl)c1Cl`: the results for the IC50 (at BRAF (setting [2]); on CRAF (setting [3]); in experiment [1]) were under 1 nM, under 10 nM and under 500 nM, respectively. Further, in experiment [1], the “HCT116 pERK % Ymin” value is −6%.
Regarding `CCC1(O)CCN(c2cccc3c2ncn3-c2ccc3ncnc(Nc4c(F)ccc(NS(=O)(=O)c5ccc(OC)c(F)c5C)c4F)c3n2)CC1`, the IC50 was 1 to 10 nM on BRAF (setting [2]), 10 to 50 nM on CRAF (setting [3]) and under 500 nM in experiment [1]. Further, in experiment [1], the “HCT116 pERK % Ymin” value came to 5%.
With `O=S(=O)(Nc1ccc(F)c(Nc2ncnc3ccc(-n4nnc5c(N6CCN(CCO)CC6)cccc54)nc23)c1F)c1cccc(Cl)c1Cl`, the IC50 on BRAF (setting [2]) is under 1 nM; on CRAF (setting [3]), under 10 nM; in experiment [1] it was under 500 nM. The “HCT116 pERK % Ymin” value in experiment [1] is given as −8%.
For the compound `Cc1c(F)cccc1S(=O)(=O)Nc1ccc(F)c(Nc2ncnc3ccc(-n4nc(C(=O)N(C)CCO)c5ccccc54)nc23)c1F`, the values for the half-inhibitory concentration (IC50) (at BRAF (setting [4]); at CRAF (setting [5]); in experiment [1] (setting [6])) were under 1 nM, 10 to 50 nM and under 500 nM, respectively. Besides, in experiment [1], the “HCT116 pERK Ymin %” value is recorded as −6.4%.
On to `CN1CCN(c2cccc3c2ncn3-c2ccc3ncnc(Nc4c(F)ccc(NS(=O)(=O)c5cccc(Cl)c5Cl)c4F)c3n2)CC1=O`, for which the IC50 on BRAF (setting [2]) is under 1 nM; at CRAF (setting [3]), under 10 nM; in experiment [1], under 500 nM. Moreover, the “HCT116 pERK % Ymin” value in experiment [1] was 12%.
With `Cc1c(Cl)cccc1S(=O)(=O)Nc1ccc(F)c(Nc2ncnc3ccc(-n4nc(C(=O)N5CC[C@H](CO)C5)c5ccccc54)nc23)c1F`, the IC50 is under 1 nM at BRAF (setting [4]), 10 to 50 nM on CRAF (setting [5]) and under 500 nM in experiment [1] (setting [6]). For the same compound, in experiment [1], the “HCT116 pERK Ymin %” value is reported as −0.4%.
Take `O=S(=O)(Nc1ccc(F)c(Nc2ncnc3ccc(-n4cnc5c(N6CCC(O)(CO)CC6)cccc54)nc23)c1F)c1cccc(Cl)c1Cl`: the IC50 at BRAF (setting [2]) was under 1 nM; at CRAF (setting [3]), under 10 nM; in experiment [1], under 500 nM. Further, in experiment [1], the “HCT116 pERK % Ymin” value was determined as 0.7%.
`Cc1c(Cl)cccc1S(=O)(=O)Nc1ccc(F)c(Nc2ncnc3ccc(-n4nc(C(=O)N5CCC(C)(O)CC5)c5ccccc54)nc23)c1F`: the IC50 is under 1 nM at BRAF (setting [4]), 10 to 50 nM on CRAF (setting [5]) and 500 to 1000 nM in experiment [1] (setting [6]). The “HCT116 pERK Ymin %” value in experiment [1] was −5.5%.
Consider `Cc1c(Cl)cccc1S(=O)(=O)Nc1ccc(F)c(Nc2ncnc3ccc(-n4nc(C(=O)N5CC6CC5CN6)c5ccccc54)nc23)c1F` (stereo not shown), for which the IC50 at BRAF (read-out: Kinase IC50 (nM) BRAF, tested form: formate) was under 1 nM; at CRAF (read-out: Kinase IC50 (nM) CRAF, tested form: formate), over 50 nM; in experiment [1] (class symbol before the bracket, tested form: formate), under 500 nM. Besides, the “HCT116 pERK Ymin %” value in experiment [1] (tested form: formate) is given as −10%.
Regarding `CC1(O)CCCN(c2cccc3c2ncn3-c2ccc3ncnc(Nc4c(F)ccc(NS(=O)(=O)c5cccc(Cl)c5Cl)c4F)c3n2)CC1` (stereo not shown), the IC50 on BRAF (setting [2]) is over 10 nM; at CRAF (setting [3]), over 50 nM; in experiment [1], under 500 nM. Further, in experiment [1], the “HCT116 pERK % Ymin” value is −4%.
The matching figures for `CS(=O)(=O)C1CCN(c2cccc3c2ncn3-c2ccc3ncnc(Nc4c(F)ccc(NS(=O)(=O)c5cccc(Cl)c5Cl)c4F)c3n2)CC1`: under 1 nM, under 10 nM, under 500 nM and −17%.
On to `Cc1c(F)cccc1S(=O)(=O)Nc1ccc(F)c(Nc2ncnc3ccc(-n4nc(C(=O)N(C)Cc5ccncc5)c5ccccc54)nc23)c1F`, for which the IC50 at BRAF (setting [4]) is under 1 nM; on CRAF (setting [5]) it was 10 to 50 nM; in experiment [1] (setting [6]), under 500 nM. For the same compound, in experiment [1], the “HCT116 pERK Ymin %” value was determined as 3.2%.
In the case of `CN(C)CC(=O)c1cn(-c2ccc3ncnc(Nc4c(F)ccc(NS(=O)(=O)c5ccccc5Cl)c4F)c3n2)c2ccccc12`, the IC50 at BRAF (setting [4]) is 1 to 10 nM; on CRAF (setting [5]), 10 to 50 nM; in experiment [1] (setting [6]), 1000 to 10000 nM. In addition, the “HCT116 pERK Ymin %” value in experiment [1] was −5%.
With `O=S(=O)(Nc1ccc(F)c(Nc2ncnc3ccc(-n4cnc5c(N6CCC[C@@H](O)C6)cccc54)nc23)c1F)c1cccc(Cl)c1Cl`, the concentration for half-maximal inhibition (IC50) is 1 to 10 nM on BRAF (setting [2]), 10 to 50 nM at CRAF (setting [3]) and under 500 nM in experiment [1]. Besides, the “HCT116 pERK % Ymin” value in experiment [1] is −11%.
Consider `O=C(c1nn(-c2ccc3ncnc(Nc4c(F)ccc(NS(=O)(=O)c5cccc(Cl)c5Cl)c4F)c3n2)c2ccccc12)N1CCC(O)CC1`, for which the results for the 50% inhibitory concentration (IC50) (at BRAF (setting [4]); on CRAF (setting [5]); in experiment [1] (setting [6])) were under 1 nM, 10 to 50 nM and under 500 nM, respectively. For the same compound, in experiment [1], the “HCT116 pERK Ymin %” value is recorded as −13%.
In the same order, the values of `Cc1c(F)cccc1S(=O)(=O)Nc1ccc(F)c(Nc2ncnc3ccc(-n4nc(C(=O)N5CCO[C@H](CO)C5)c5ccccc54)nc23)c1F` are under 1 nM, 10 to 50 nM, under 500 nM and 11%.
For the compound `Cc1c(F)cccc1S(=O)(=O)Nc1ccc(F)c(Nc2ncnc3ccc(-n4nc(C(=O)N(C)C(C)c5ccccn5)c5ccccc54)nc23)c1F` (stereo not shown), the results for the IC50 (on BRAF (setting [4]); at CRAF (setting [5]); in experiment [1] (setting [6])) were 1 to 10 nM, over 50 nM and under 500 nM, respectively. In experiment [1], the “HCT116 pERK Ymin %” value is −2.9%.
In the case of `O=S(=O)(Nc1ccc(F)c(Nc2ncnc3ccc(-n4nnc5ccccc54)nc23)c1F)c1ccccc1Cl`, the IC50 on BRAF (setting [4]) is 1 to 10 nM; at CRAF (setting [5]), under 10 nM; in experiment [1] (setting [6]), under 500 nM. Further, the “HCT116 pERK Ymin %” value in experiment [1] was 2.4%.
For the compound `COC[C@@H]1CCCN1c1cccc2c1ncn2-c1ccc2ncnc(Nc3c(F)ccc(NS(=O)(=O)c4cccc(Cl)c4Cl)c3F)c2n1`, the results for the IC50 (at BRAF (setting [2]); at CRAF (setting [3]); in experiment [1]) were over 10 nM, over 50 nM and under 500 nM, respectively. The “HCT116 pERK % Ymin” value in experiment [1] is −3%.
Take `Cc1c(F)cccc1S(=O)(=O)Nc1ccc(F)c(Nc2ncnc3ccc(-n4cnc(-c5ccccn5)c4)nc23)c1F`: the 50% inhibitory concentration (IC50) was over 10 nM at BRAF (setting [2]), over 50 nM at CRAF (setting [3]) and 1000 to 10000 nM in experiment [1]. Moreover, the “HCT116 pERK % Ymin” value in experiment [1] is reported as −5%.
In the same order, the values of `CC(C)N1CCN(c2cccc3c2nnn3-c2ccc3ncnc(Nc4c(F)ccc(NS(=O)(=O)c5cccc(Cl)c5Cl)c4F)c3n2)CC1` [Example 619] are under 1 nM, under 10 nM, under 500 nM and −13%.
Consider `CN1CCN(C(=O)c2cn(-c3ccc4ncnc(Nc5c(F)ccc(NS(=O)(=O)c6ccccc6Cl)c5F)c4n3)c3ccccc23)CC1`, for which the figures for the IC50 (at BRAF (setting [4]); on CRAF (setting [5]); in experiment [1] (setting [6])) were under 1 nM, 10 to 50 nM and under 500 nM, respectively. For the same compound, the “HCT116 pERK Ymin %” value in experiment [1] is −10%. In addition, the “YMIN of pERK IC50 dose response curve (paradoxical induction of pERK signaling)” value in experiment [1] (RAS-mutant HCT116 cells, FIG. 1) is over −20%.
For the compound `COc1ccc(S(=O)(=O)Nc2ccc(F)c(Nc3ncnc4ccc(-n5nnc6ccccc65)nc34)c2F)c(C)c1`, the IC50 is over 10 nM at BRAF (setting [4]), 10 to 50 nM on CRAF (setting [5]) and 500 to 1000 nM in experiment [1] (setting [6]). Moreover, the “HCT116 pERK Ymin %” value in experiment [1] is listed as 4.3%.
In the same order, the values of `Cc1c(F)cccc1S(=O)(=O)Nc1ccc(F)c(Nc2ncnc3ccc(-n4nc(C(=O)NC[C@H](O)CO)c5ccccc54)nc23)c1F` are 1 to 10 nM, 10 to 50 nM, 1000 to 10000 nM and −14.9%.
Take `Cc1c(Cl)cccc1S(=O)(=O)Nc1ccc(F)c(Nc2ncnc3ccc(-n4cc(C(=O)N5CC[C@@H](N)C5)c5ccccc54)nc23)c1F`: the 50% inhibitory concentration (IC50) is under 1 nM on BRAF (read-out: Kinase IC50 (nM) BRAF, tested form: formic acid salt); 10 to 50 nM at CRAF (read-out: Kinase IC50 (nM) CRAF, tested form: formic acid salt); 1000 to 10000 nM in experiment [1] (class symbol before the bracket, tested form: formic acid salt). In addition, in experiment [1] (tested form: formic acid salt), the “HCT116 pERK Ymin %” value was found to be 3%.
On to `CC1(F)CN(c2cccc3c2ncn3-c2ccc3ncnc(Nc4c(F)ccc(NS(=O)(=O)c5cccc(Cl)c5Cl)c4F)c3n2)C1`, for which the IC50 at BRAF (setting [2]) was over 10 nM; on CRAF (setting [3]), over 50 nM; in experiment [1] it was under 500 nM. For the same compound, the “HCT116 pERK % Ymin” value in experiment [1] was −15%.
